# Measured affinities in a library of Ab-14 light chain variants

Values reported by Li et al. 2023, doi:10.1038/s41467-023-39022-2 (FLAb copy).

All variants were tested on one target, the spike HR2 peptide PDVDLGDISGINAS (SARS-CoV-2).

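Phage display of a naive human antibody library on the peptide gave the parent. The variants were designed computationally from a first round of random CDR variants and then made and measured. Their group label is 14L_En_Gen (En: ensemble of fine-tuned language models; Gen: genetic algorithm). AlphaSeq pools MATa yeast showing the antibodies with MATalpha yeast showing the peptide. Binding brings cells together so that they mate, and sequencing counts the barcode pairs among the diploids. Read counts were normalised to the haploid input and turned into Kd by a linear fit to BCL2-family pairs of known affinity, for each replicate. Mating was done six times.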

Each scFv is VH, a (GGGGS)3 linker, VL, as in the parent Ab-14, and differs from it in the CDRs of the light chain only.
VH: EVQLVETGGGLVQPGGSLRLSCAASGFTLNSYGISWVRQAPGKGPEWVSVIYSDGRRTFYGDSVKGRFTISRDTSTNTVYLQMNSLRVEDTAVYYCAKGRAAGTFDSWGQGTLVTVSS
VL: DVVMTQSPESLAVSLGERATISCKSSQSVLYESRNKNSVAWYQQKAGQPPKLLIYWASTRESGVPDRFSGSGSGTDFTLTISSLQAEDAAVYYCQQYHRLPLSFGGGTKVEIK

Each variant is given by its three light chain CDRs, as the data file delimits them; those of the parent are KSSQSVLYESRNKNSVA, WASTRES, QQYHRLPLS.
Scale: log10 of Kd in nM, estimated from mating counts; low values are strong binders.
A mean of the replicates is given; it leaves out those without a signal.
A pair that was not seen in that replicate is written "ND"; this usually means weak binding, but a binder can also be missed.
Nonspecific signal, from three strains lacking the peptide, appeared in 4% of pairings of all light chain designs, centred on 2.64 (5% of these signals below 1.59); values are not corrected for it. For each scFv, signals with the empty controls are counted beside the result, with their mean in brackets.

CDR-L1	CDR-L2	CDR-L3	log10 Kd (nM) by replicate	mean, log10 nM	signal with controls
KIGATLNTLAHKQNNVA	DLVEREN	QQYFRLPLS	0.38 0.57 -0.26 0.60 0.29 0.42	0.33	0/18
MISQLMNMGQFAINSVA	QASLRCN	QQYDRLPLM	ND ND ND ND 1.49 1.57	1.53	1/18 (1.22)
MLSQMWALGQKVKNSVA	QASMRFN	QQYDRLPLI	2.44 2.81 2.03 2.50 2.20 ND	2.40	0/18
TLYGLMLSMSKNVNNVA	EMTTREK	QQYDRLPLV	ND 1.29 ND ND ND ND	1.29	1/18 (1.65)
TISQMTSWMSNKKANVA	EVSTRLN	QQYDRLPLS	1.38 0.83 1.21 1.20 0.96 1.38	1.16	0/18
KLTMITGLEKVSKNNVA	EMETREE	QQYNRLPLS	-0.02 -0.07 -0.12 -0.36 -0.21 -0.04	-0.14	2/18 (2.63)
MISQLINMGSFAINSVA	QASIRNE	QQYDRLPLM	-0.42 0.16 -0.49 -0.76 -0.32 -0.59	-0.40	0/18
MISQLYNMGSFAINSVA	QASQRNA	QQYDRLPLM	1.23 1.67 1.22 1.18 0.97 1.24	1.25	0/18
KIGMTLNQLMHHKNNVA	DLVTREN	QQYHRLPLS	0.84 0.54 0.58 0.38 0.58 0.49	0.57	1/18 (2.71)
MIYGAQRELGLAANSIA	DNVTRYN	QQYNRLPLS	2.93 2.48 ND ND 1.80 ND	2.40	0/18
KLALITGLEKVSKNNVA	EMETRER	QQYNRLPLS	0.25 -0.05 -0.37 -0.42 0.59 0.00	0.00	2/18 (1.28)
TISQMTSLFSQSINNVA	EVSMREE	QQYDRLPLA	1.41 ND 1.65 0.97 1.63 1.31	1.40	0/18
MIGGAMKSQSAHRNSVA	DMTNREN	QQYDRLPLS	0.47 0.58 0.32 0.36 0.35 0.59	0.45	1/18 (2.33)
MISNVMNTLTRYGNNVA	DLTEREK	QQYFRLPLS	ND 1.98 1.87 1.86 ND ND	1.90	0/18
QLAMITGHQSVEKNNVA	EMETREN	QQYDRLPLS	ND 2.33 ND ND 3.29 ND	2.81	0/18
IIDQIMYHGNKHANSIA	QASERLN	QQYHHLPLI	1.30 1.26 2.36 1.20 1.72 1.78	1.60	0/18
MISQLYNMGQFAINSVA	QGSERNN	QQYDRLPLM	1.04 1.01 1.04 1.17 0.71 1.22	1.03	1/18 (3.09)
TISQMTSLFSQKINNVA	EVSMREE	QQYDRLPLI	0.57 0.75 0.61 0.77 0.64 0.80	0.69	2/18 (3.50)
IIDAIMFHGLKNASSIA	QASERLN	QQYHHLPLT	2.99 2.70 2.08 2.36 1.86 1.82	2.30	1/18 (2.27)
KLSMTHGMETKNRNSVA	ELVTRMS	QQYNRLPLS	1.28 0.41 0.71 0.52 0.38 0.50	0.63	1/18 (2.72)
TISQLYNMGQFAINSVA	QASTRNE	QQYDRLPLM	0.79 0.80 0.93 1.05 0.73 0.87	0.86	3/18 (2.32)
HLGLATMLEEYVRNSVA	NNSTREE	QQYDRLPLS	ND ND 1.68 ND 1.70 ND	1.69	1/18 (2.45)
KLQSVTGTEKVHGNNVA	EMETREK	QQYNRLPLA	0.84 0.52 1.10 1.67 1.15 1.61	1.15	0/18
KLTSVTGTEKVHGNNVA	EMETREK	QQYNRLPLS	0.89 0.76 0.48 0.71 0.48 0.89	0.70	1/18 (2.57)
KISQMVRVGSTMSNSIA	EEVTRAK	QQYHRLPLS	0.33 0.55 0.25 0.57 -0.08 0.16	0.30	0/18
MLSHVADISSKNRNSVA	EMTTREN	QQYDRLPLI	1.07 0.34 0.68 0.86 0.88 1.01	0.81	0/18
IVSQLMLWGMHNKNSIA	EAQTRTN	QQYDRLPLF	ND 1.34 ND ND 2.48 ND	1.91	1/18 (1.91)
MIYGAQRELGLAANSIA	DNVTRYS	QQYERLPLS	ND ND ND ND ND ND	ND	0/18
TISQVMNTLTRHGNNVA	DLTERED	QQYFRLPLS	0.54 0.90 0.57 0.12 0.57 0.91	0.60	1/18 (2.46)
HITYGMMVHGRHSSSIA	QAEERAK	QQYDRLPLA	2.14 2.60 1.42 0.87 2.11 1.03	1.70	0/18
IVSQLMLWGWHQKNSIA	EAQTRLN	QQYDRLPLF	ND ND ND ND ND ND	ND	0/18
MLSQMWGVGNKVSNSVA	QASTRFN	QQYDRLPLI	0.93 1.22 0.84 1.09 0.88 0.96	0.99	3/18 (2.45)
HMSALTMLGSRNRNSVA	QMTTREN	QQYDRLPLA	0.91 0.55 0.76 0.28 1.00 0.64	0.69	0/18
MISQLHNMGTFAINSVA	QASIRNA	QQYDRLPLI	ND ND ND ND ND ND	ND	0/18
QLTMITGHMNVSKNNVA	EMETRMN	QQYDRLPLS	ND 0.80 -0.04 0.53 1.24 0.30	0.57	1/18 (1.17)
MVSQLMLWGLHAKNSIA	EAVTRLN	QQYDRLPLI	ND 1.47 2.48 1.80 1.36 2.30	1.88	0/18
HITMGMYVMGRHNSSIA	QAEERAK	QQYDRLPLM	1.31 ND 1.85 1.80 1.47 ND	1.61	0/18
MLSQMTGLGMKASNSVA	QASMRFD	QQYYRLPLI	1.13 0.77 1.26 0.88 0.79 1.29	1.02	0/18
KVSEFMKGLMMRTDSIA	DNTTRNS	QQYDRLPLS	ND ND 2.46 ND ND ND	2.46	0/18
KISGLSNHQSSVSNNVA	ENVTRVQ	QQYFRLPLA	1.17 1.42 1.38 1.24 1.29 1.67	1.36	5/18 (3.09)
KISQMVRVGSTHSNSIA	EEAKRAD	QQYHRLPLA	0.61 0.58 0.45 0.51 0.58 0.71	0.57	2/18 (3.58)
TIGSTLMYGSRNRSNVA	EVSERLN	QQYDRLPLI	ND 1.34 ND 1.34 3.83 ND	2.17	1/18 (2.99)
TIGQSLMQGIRNRSNVA	EVSQRLN	QQYDRLPLF	1.94 1.97 2.15 1.68 2.19 2.67	2.10	1/18 (1.67)

The opening 2 entries, copied out:

| CDR-L1 | CDR-L2 | CDR-L3 | log10 Kd (nM) by replicate | mean, log10 nM | signal with controls |
|---|---|---|---|---|---|
| KIGATLNTLAHKQNNVA | DLVEREN | QQYFRLPLS | 0.38 0.57 -0.26 0.60 0.29 0.42 | 0.33 | 0/18 |
| MISQLMNMGQFAINSVA | QASLRCN | QQYDRLPLM | ND ND ND ND 1.49 1.57 | 1.53 | 1/18 (1.22) |

Values of this round are not directly comparable with the first-round values of the same sequences.
In the paper, a design with two or fewer of six values counts as a poor binder.